# Experimental data taken from publication PMC4806471, “Oral proteasome inhibitor with strong preclinical efficacy in myeloma models” (BMC Cancer, 2016).
# Protein sequences, listed by entry. Tags and fused reporters are not part of them. Lines headed by an entry give the natural chain unless they say otherwise; changes in a name come on top.
# UniProt P28074: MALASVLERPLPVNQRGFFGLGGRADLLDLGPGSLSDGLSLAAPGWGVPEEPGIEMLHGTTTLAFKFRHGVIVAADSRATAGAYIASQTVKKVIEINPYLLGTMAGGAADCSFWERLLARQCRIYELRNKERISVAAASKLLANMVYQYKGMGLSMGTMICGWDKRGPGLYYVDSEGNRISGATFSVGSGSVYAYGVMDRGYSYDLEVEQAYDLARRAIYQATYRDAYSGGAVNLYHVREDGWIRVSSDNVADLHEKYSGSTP
# Target: T1, 20S proteasome CT-L, β5 (Homo sapiens, UniProt P28074)
# T1 construct: endogenous in cells; host or cells: RPMI8226 (human multiple myeloma)
# Test: In vitro 20S proteasome inhibition in RPMI8226 cell lysate, Suc-Leu-Leu-Val-Tyr-AMC substrate
# Type: biochemical
# Details: RPMI8226 cellular lysates, 1 h at 37 °C
# Procedure: Pomalidomide was purchased from Tokyo Chemical Industry.
# RPMI8226 cell lysate was used for the in vitro proteasome inhibition assay. Cells were washed with PBS and resuspended in 20 mM Tris–HCl, pH 7.5. Then, cells were lysed on ice by dounce homogenization and the supernatants were collected by centrifugation. The assay was conducted in 96-well plates by incubating 2 μg of lysates with serial dilutions of a test compound and 20 μM of substrate at 37 °C for 1 h. After incubation, production of hydrolyzed AMC groups was measured using a FlexStation II Fluorometer (Molecular Devices) or using a Spectra MAX Gemini Fluorometer (Molecular Devices) with an excitation filter of 380 nm and an emission filter of 460 nm.
smiles,measurement,value
CC(C)C[C@H](NC(=O)CNC(=O)c1cc(Cl)ccc1Cl)B(O)O [Ixazomib],IC50,3 to 5 nM
